Bioassay records as filed in PubChem BioAssay.
ERp5 block = ERp5 (human) disulfide isomerase inhibition | Q15084 | inhibition, % at 9.99 µM | ERp5 insulin aggregation, absorbance 650 nm, 90 min | hit rate 0.05% among 350,000 | AID 651711;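 active = mean replicate inhibition above about 25%, with every replicate also reaching it, limit read from the data, passing the limit was not always enough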
PglD inh = blocks C. jejuni PglD acetyltransferase activity. hit rate 0.098% among 360,000. AID 602405. inhibition, % at 12.5 µM. purified PglD enzyme, DTNB colorimetric CoA detection; in the data active = inhibition above about 16%, passing the limit was not always enough
FGF22 binding = binders of recombinant human FGF22 by thermal shift | AID 651658 | activity (Tm shift, normalised), % at 9.99 µM | SYPRO orange fluorescence; percent of sucrose octasulfate shift, DMSO zero | hit rate 1.5% among 340,000 | Q9HCT0;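 active = mean Tm shift, scaled 0 neutral to 100 positive control, at about 1.3% or above, every replicate too, limit read from the data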
Yeast UUG start = modulators of start codon recognition fidelity in yeast. S. cerevisiae UUG-firefly luciferase reporter, luminescence/redox ratio. activity score, % at 18.7 µM. 0.13% of 350,000 active. AID 602363;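 active = replicate mean at a twofold rise or more, about +100% in these data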;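 also: firefly luciferase made from a UUG start codon reports start codon fidelity; reporter light over untreated wells divided by growth signal over untreated wells; some hits fall short of that in this replicate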
ARNT TACC3 PPI = ARNT/TACC3 interaction disruption; inhibition, % at 9.99 µM; Q9Y6A5; AID 623870; AlphaScreen His-ARNT PAS-B/GST-TACC3 binding, luminescence; TACC3 fragment carries E629A point mutation; hit rate 0.66% among 390,000;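 active = mean inhibition of replicates at least 50% and at least half of replicates each reaching 50%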;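 note: 0% = complete ARNT plus TACC3 wells and 100% = ARNT alone without TACC3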
PDI turbidity = inhibitors of human protein disulfide isomerase. PDI insulin aggregation turbidity, A650, 90 min. inhibition, % at 10 µM. hit rate 0.052% among 350,000;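 active = mean inhibition across replicates of 30% or more, whatever share of single replicates reach that level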
AlphaScreen ctr = interferes with AlphaScreen signal, flagging false ARNT-TACC3 hits; AC50, µM (highest dose often 68 µM), for the others: top-dose activity change, negative = signal decrease; hit rate 50% among 1,200; shares compounds with ARNT TACC3 PPI; His-ARNT PASB-GST AlphaScreen artifact counter-screen, luminescence; AID 651705;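 active = every separate test run was called active for a drop in luminescence, with AC50 within twice the top valid dose, actives reach about 71 µM in these data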
Numbers without * were called inactive; . = not tested or not shown; [ ] = another dose, or the depositor's remark. Only some compounds are listed: those with a hit (about 1.9% of all), similar ones and a draw of the others.

SMILES | ERp5 block | PglD inh | FGF22 binding | Yeast UUG start | ARNT TACC3 PPI | PDI turbidity | AlphaScreen ctr
Cc1noc(C)c1S(=O)(=O)Nc1cccc2c1O[C@@H](CN(C)Cc1ccc(-c3ccccc3)cc1)[C@@H](C)CN([C@H](C)CO)C2=O | . | . | . | 8 | . | . | .
c1ccc(-c2nnc(Nc3nc(-c4ccccn4)nnc3-c3ccccc3)s2)cc1 | . | . | . | . | . | . | 4.1µM*
Cn1c(-c2ccccc2)cnc1Nc1nc(-c2ccccn2)nnc1-c1ccccc1 | . | . | . | . | . | . | 2.6µM*
CNc1nc(-c2ccccn2)nnc1-c1ccccc1 | . | 2 | . | -33 | 64* | 0 | 3µM*
c1ccc(-c2nnc(-c3ccccn3)nc2NC2CCCCC2)cc1 | 13 | -8 | . | -72 | . | -3 | .
CC(Nc1nc(-c2ccccn2)nnc1-c1ccccc1)c1ccccc1 (centres undefined) | . | . | . | . | . | . | 2.3µM*
CCC(=O)N1CC2(C1)[C@H](c1ccc(-c3ccccc3C)cc1)[C@@H](CO)N2C(C)=O | -3 | . | 0 | . | . | . | .
COc1ccc(S(=O)(=O)Nc2ccc3c(c2)C(=O)N([C@@H](C)CO)C[C@H](C)[C@H](CN(C)S(=O)(=O)c2c(C)noc2C)O3)cc1 | 1 | 0 | 0 | 12 | -4 | . | .
Cc1ncc(CO)c(/C=N/Nc2cccc(Cl)n2)c1O | -1 | -6 | 1 | -4 | 13 | 8 | .
Cc1cc(C(=O)N/N=C/c2c(CO)cnc(C)c2O)c2ccccc2n1 | -3 | -3 | 0 | -28 | 61* | 3 | 20µM*
Cc1ncc(CO)c(/C=N/NC(=O)c2cc(Br)ccc2O)c1O | -4 | . | . | . | 62* | 8 | 47µM*
C[C@H](CO)N1C[C@H](C)[C@@H](CN(C)Cc2cccnc2)Oc2ncc(C3=CCCC3)cc2C1=O | 12 | 3 | 0 | 1 | 1 | . | .
COc1ccc(/C(C)=N\NC(=O)CSc2nnc(C)s2)cc1 | . | -3 | . | -24 | 39* | -16 | -10%
CC(=O)N(C)C[C@H]1Oc2ncc(C3=CCCC3)cc2C(=O)N([C@H](C)CO)C[C@@H]1C | -1 | 1 | 0 | 1 | 1 | . | .
Cc1coc2c(C)c3oc(=O)c(CC(=O)N[C@@H](CC(C)C)C(=O)O)c(C)c3cc12 | 1 | 6 | 0 | -5 | -7 | 5 | .
Cc1coc2c(C)c3oc(=O)c(CCC(=O)N[C@@H](C)C(=O)N[C@@H](Cc4ccccc4)C(=O)O)c(C)c3cc12 | 1 | 12 | 0 | 10 | 74* | . | -36%
Cc1c(CCC(=O)O)c(=O)oc2c(C)c3occ(-c4ccc(Br)cc4)c3cc12 | -1 | -2 | 0 | -11 | 56* | -2 | 52µM*
CC(C)Nc1nc(NC(C)C)nc(C(=O)OCCO)n1 | -3 | . | 0 | 0 | 57* | -9 | -13%
Cc1ccccc1NC(=O)CSc1nnc(-c2ccccn2)o1 | 1 | 3 | 0 | -17 | . | -10 | .
O=C(CSc1ccc2nnc(-c3ccccn3)n2n1)NCC1CCCO1 (centres undefined) | 5 | -1 | 0 | 2 | 56* | 2 | -16%
O=C(CSc1nnc(-c2ccccn2)o1)Nc1ccccc1F | -2 | -1 | 0 | -21 | 59* | 4 | -10%
CCOC(=O)N1CCN(C(=O)CSc2ccc3nnc(-c4ccncc4)n3n2)CC1 | 0 | 0 | 0 | -22 | 8 | 5 | .
CCOC(=O)N1CCN(C(=O)CSc2ccc3nnc(-c4ccccn4)n3n2)CC1 | -5 | 3 | 0 | -18 | 42* | -4 | 2%
O=C(CSc1ccc2nnc(-c3ccccn3)n2n1)Nc1ccccc1F | 4 | 0 | 0 | -19 | 53* | -17 | -34%
O=C(CSc1ccc2nnc(-c3ccccn3)n2n1)Nc1cccc(F)c1 | -6 | 0 | 0 | -22 | 40 | 2 | .
O=C(Nc1ccccc1C(F)(F)F)c1ncn[nH]1 | 24 | . | 0 | . | 59* | 3 | -28%
O=C(Nc1ccccc1C(F)(F)F)c1cnccn1 | 7 | 12 | 0 | -12 | -26 | -2 | .
O=C(C[C@H]1C=C[C@H](NC(=O)c2cccc(F)c2)[C@@H](CO)O1)Nc1nccs1 | -1 | -4 | 0 | . | 28 | . | .
NC(=O)CC(NC(=O)c1ccccc1)c1ccc(NCc2ccccn2)c([N+](=O)[O-])c1 (centres undefined) | 2 | 6 | 0 | -7 | 65* | -6 | -13%
Cc1noc(C)c1NC(=O)N(C)C[C@@H]1OCCCC[C@@H](C)Oc2ccc(NC(=O)Nc3ccc4c(c3)OCO4)cc2C(=O)N([C@@H](C)CO)C[C@H]1C | -5 | -4 | 0 | 2 | -6 | . | .
O=C1c2cccnc2C(=O)N1Cc1ccc(S(=O)(=O)NCc2ccco2)s1 | 1 | 2 | 0 | -10 | 57* | 4 | -8%
COc1ccc(-c2nnc(SCC(=O)NC3CC3)o2)cc1 | . | 5 | 0 | -4 | active | 2 | 1%
CC1=C(SCc2ccccc2)C(=O)c2ccccc2C1=O | 2 | -8 | 0 | -14 | 24* | 4 | 55µM*
O=C1C(SCCO)=C(SCCO)C(=O)c2ccccc21 | 5 | -2 | 0 | -42 | 25 | 7 | .
Cn1c(-c2ccc(Cl)cc2)cnc1N | . | 2 | . | -31 | 58* | 4 | 58µM*
CCOc1ccc(-c2cnc(N)n2C)cc1 | -2 | -3 | 42 | -29 | 54* | 0 | -17%

Shown with values under each structure: entries from further up
Each structure is followed by: ERp5 block	PglD inh	FGF22 binding	Yeast UUG start	ARNT TACC3 PPI	PDI turbidity	AlphaScreen ctr
- Cn1c(-c2ccccc2)cnc1Nc1nc(-c2ccccn2)nnc1-c1ccccc1
    .	.	.	.	.	.	2.6µM*
- Cc1coc2c(C)c3oc(=O)c(CC(=O)N[C@@H](CC(C)C)C(=O)O)c(C)c3cc12
    1	6	0	-5	-7	5	.
- Cc1coc2c(C)c3oc(=O)c(CCC(=O)N[C@@H](C)C(=O)N[C@@H](Cc4ccccc4)C(=O)O)c(C)c3cc12
    1	12	0	10	74*	.	-36%
- CNc1nc(-c2ccccn2)nnc1-c1ccccc1
    .	2	.	-33	64*	0	3µM*
- Cc1ncc(CO)c(/C=N/Nc2cccc(Cl)n2)c1O
    -1	-6	1	-4	13	8	.

Later entries:
SMILES | ERp5 block | PglD inh | FGF22 binding | Yeast UUG start | ARNT TACC3 PPI | PDI turbidity | AlphaScreen ctr
CCOc1ccc(-n2nc3ccc(N)cc3n2)cc1 | -3 | -2 | 0 | -2 | -5 | -7 | .
O=C(C1CCCC1)N1C[C@@H]2[C@H](c3ccccc31)[C@H](CO)N2C(=O)c1cccnc1 | -1 | -3 | 0 | -14 | -5 | . | .
CN(CC(=O)O)Cc1nc2ccccc2[nH]1 | . | 1 | . | 4 | 88* | 0 | 51µM*
CC(=O)NCCc1nc2ccccc2[nH]1 | -1 | -1 | 0 | -7 | -5 | 4 | .
Cc1ccccc1-c1ccccc1[C@H]1[C@@H](C#N)N(C(=O)c2ccccc2)[C@@H]1CO | 3 | . | -1 | . | . | . | .
O=C(NCC1CCCCC1)[C@@H]1N[C@@H]2c3ccc(C4=CCCC4)c(=O)n3C[C@@H]2[C@H]1CO | 4 | -3 | 0 | 2 | 0 | . | .
CC(C)C#Cc1ccc2c(c1)O[C@@H](CN(C)C(=O)CN(C)C)[C@@H](C)CN([C@@H](C)CO)S2(=O)=O | 7 | 2 | -1 | 11 | 99* | . | -13%[38 µM]
C[C@H](CO)N1C[C@H](C)[C@H](CN(C)Cc2ccncc2)OCCCC[C@H](C)Oc2ccc(NC(=O)Nc3ccc(C(F)(F)F)cc3)cc2C1=O | 1 | 7 | -2 | 8 | -5 | . | .
